Results from article PMC3466217, “A Novel Magnetic Nanoparticle Drug Carrier for Enhanced Cancer Chemotherapy” (PLoS ONE, 2012).
Several values for one entry are separate records, joined by “and”; a condition that tells them apart may be missing. Identical values can stand only once.

System: H22 hepatoma cell tumor
Experiment: Chemotherapy experiments in H22 tumor-bearing mice (tumor volume, life span, histology)
Settings: day 33 after start of treatment, 5 mg DOX/kg iv three times, no EMF

SMILES: COc1cccc2c1C(=O)c1c(O)c3c(c(O)c1C2=O)C[C@@](O)(C(=O)CO)C[C@@H]3O[C@H]1C[C@H](N)[C@H](O)[C@H](C)O1 [DOX, doxorubicin]
- relative tumor volume (V/V0): 14.8±1.64 and 14.8±1.67
